Reference: US8975259B2, “Compositions and methods for inhibiting G protein signaling” (University of Rochester, priority 2007, dated 2015)

System: human μ opioid receptor (hMOR-CHO cells)
Test: Total inositol phosphate assay in hMOR-CHO cells
Assay type: cell-based
Method: Chinese hamster ovary (CHO) cells stably expressing either the human κ (hKOR-CHO), δ (hDOR-CHO)(L. Toll, Stanford Research Institute, Palo Alto, Calif.) or μ (hMOR-CHO)(G. Uhl, National Institute on Drug Abuse, Baltimore, Md.) opioid receptor were used in the experiments. Cells in 6-well plates were labeled by adding 4 μCi of [^3H]inositol for 24 hr in inositol-free F-10 media, without serum. After labeling, LiCl was added directly to the labeling media at a final concentration of 10 mM. Ligands or peptides were added at the same time. The final volume of each well was 1 mL. The plates were put back in to the incubator at 37° C. for 30 min after which time the medium was aspirated and the plates were washed twice with 1× PBS. Ice-cold 50 mM formic acid, 1 mL, was added to the plates which were placed in the cold room at 4° C. for 30 min. After the incubation, the contents of the plates were applied to Dowex AG1-X8 columns and allowed to flow all the way through the column. The columns were washed, twice each, with 50 and 100 mM formic acid, for a total of four washes, followed by elution of the IP-containing fraction with 3 mL of 1.2 M ammonium formate/0.1 M formic acid. The eluted fraction was mixed with Scintisafe scintillation fluid, for high salt, and counted. The data are represented as the fold increase over control in total inositol phospates. […]

## CN1CC[C@]23c4c5ccc(O)c4O[C@H]2[C@@H](O)C=C[C@H]3[C@H]1C5.O=S(=O)(O)O [morphine, Morphine sulfate]
  increase in total IP compared to control: 3 fold
